{"source": "PubChem BioAssay AID540364", "about": "(The Scripps Research Institute Molecular Screening Center, 2011)", "note": "The list shows a part of the results, in another mix than the full data. Calls of active or inactive are those of the source.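 How the source made its calls: active means activation above the average of all compounds screened plus 3 SD, cutoff fixed separately per campaign (cut at about 7.5% in these data); inactive means the rest.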"}
{"test": "FXN promoter activators, primary screen, cell-based, luciferase luminescence, HEK293 lucGAA850 (AID 540364);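 further: 0% = DMSO wells and 100% = 10 µM SAHA wells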", "conditions": "HEK293 lucGAA850 FXN promoter luciferase reporter, 24 h; at 6 µM; stronger effect = higher value; percent of 10 µM SAHA response"}
{"smiles": "CN(C)P(=O)(N(C)C)n1c(Nc2ccccc2)nnc1-c1ccccc1", "activation": "inactive: 1.36%"}
{"smiles": "O=P(Nc1nc2ccc(Cl)cc2s1)(c1ccccc1)c1ccccc1", "activation": "inactive: -0.09%"}
{"smiles": "CCCC1OP(N)(=O)OCC1CC", "note": "(stereo unspecified)", "activation": "inactive: -2.58%"}
{"smiles": "O=C(O)c1ccccc1[As](=O)(O)O", "activation": "inactive: 0.92%"}
{"smiles": "CC(=O)Nc1ccc([As](=O)(O)O)cc1", "activation": "inactive: -2.87%"}
{"smiles": "CN(C(=O)Cc1ccc(Cl)c(Cl)c1)[C@H]1CCCC[C@@H]1N1CCCC1", "activation": "inactive: -1.92%"}
{"smiles": "Cc1ccc(NP(=O)(Oc2ccccc2F)Oc2ccccc2F)nc1", "activation": "inactive: 0.02%"}
{"smiles": "CCOP(=O)(Nc1ccccc1)OCC", "activation": "inactive: 1.08%"}
{"smiles": "Cc1cc(SC(NC(=O)c2ccc(F)cc2)C(Cl)(Cl)Cl)ncn1", "note": "(stereo unspecified)", "activation": "inactive: -1.13%"}
{"smiles": "Nc1cccc2ccc([As](=O)(O)O)cc12", "activation": "inactive: 0.83%"}
{"smiles": "CCN(N=Nc1nonc1N)c1nonc1N", "activation": "inactive: 3.92%"}
{"smiles": "Cc1ccc(N/C(=N/P(=O)(N2CCOCC2)N2CCOCC2)N2CCOCC2)cc1", "activation": "inactive: -3.3%"}
{"smiles": "CN(C(=O)Cc1ccc(Cl)c(Cl)c1)[C@H]1CCCC[C@H]1N1CCCC1", "activation": "inactive: -1.61%"}
{"smiles": "NC(=O)c1cc([N+](=O)[O-])cc([N+](=O)[O-])c1N", "activation": "inactive: -0.38%"}
{"smiles": "Clc1ccc(Cl)c(NC2=NCC(CBr)S2)c1", "note": "(stereo unspecified)", "activation": "inactive: 1.24%"}
{"smiles": "CN1CCCC(OC(=O)C(c2ccccc2)c2ccccc2)C1", "note": "(stereo unspecified)", "activation": "inactive: 0.48%"}
{"smiles": "Cc1ccc(OP(=O)(Nc2nccs2)Oc2ccc(C)cc2)cc1", "activation": "inactive: 1.22%"}
{"smiles": "COc1ccccc1OP(=O)(Nc1ccc(C)cn1)Oc1ccccc1OC", "activation": "inactive: 0.66%"}
{"smiles": "O=C(NC(Sc1ccncn1)C(Cl)(Cl)Cl)c1ccccc1", "note": "(stereo unspecified)", "activation": "inactive: 0.35%"}
{"smiles": "Oc1ccccc1CNc1ccccn1", "activation": "inactive: 0.09%"}
{"smiles": "CC(C)CC(=O)NC(Sc1ccc(Cl)cc1)C(Cl)(Cl)Cl", "note": "(stereo unspecified)", "activation": "inactive: 2.97%"}
{"smiles": "Nc1cc(N)c2nonc2c1[N+](=O)[O-]", "activation": "inactive: 1.44%"}
{"smiles": "COc1ccc(C2=NCC(CBr)S2)cc1", "note": "(stereo unspecified)", "activation": "inactive: 1.1%"}
{"smiles": "O=[N+]([O-])c1cc([N+](=O)[O-])c(CCNc2ccccc2)c([N+](=O)[O-])c1", "activation": "inactive: -2.16%"}
{"smiles": "CCc1nc2c(n1)c1c(non1O)c1c2no[n+]1[O-]", "activation": "active: 12.3%"}
{"smiles": "Cc1ccc(NP(=O)(Oc2ccccc2)Oc2ccccc2)nc1", "activation": "inactive: 3.39%"}
{"smiles": "CC(=O)N1C2C3N(C(C)=O)C1C1N(C(C)=O)C(C(N1C(C)=O)N3C(C)=O)N2C(C)=O", "activation": "inactive: 3.41%"}
{"smiles": "O=[N+]([O-])c1cccc2n[nH]nc12", "activation": "inactive: 0.26%"}
{"smiles": "CCN(/C(=N/P(=O)(N1CCOCC1)N1CCOCC1)N1CCOCC1)c1ccc(OC)cc1", "activation": "inactive: 2.28%"}
{"smiles": "C[N+]1=C2C=CC=CC=C2SC12C([N+](=O)[O-])=CC([N+](=O)[O-])=C[C-]2[N+](=O)[O-]", "note": "(stereo unspecified)", "activation": "inactive: -13.6%"}
{"smiles": "Nc1ccc([As](=O)(O)c2ccc(N)cc2)cc1", "activation": "inactive: 2.96%"}
{"smiles": "c1cc(-c2nn[nH]n2)ccc1-c1nn[nH]n1", "activation": "inactive: -0.06%"}
{"smiles": "CC1CCN(C(=O)Oc2c(Cl)cc(Cl)c3cccnc23)CC1", "activation": "inactive: 1.64%"}
{"smiles": "CN(C)C(=O)OCCc1n(C)cc[n+]1C", "activation": "inactive: 0.69%"}
{"smiles": "CC(C)=N/N=C(\\N)N[N+](=O)[O-]", "activation": "inactive: 1.79%"}
{"smiles": "CC(C)c1nc(Nc2ccccc2)n(P(=O)(N(C)C)N(C)C)n1", "activation": "inactive: -0.65%"}
{"smiles": "O=P1(N(CCCl)CCCl)OCCCS1", "note": "(stereo unspecified)", "activation": "inactive: 1.4%"}
{"smiles": "O=C(Nc1cc([As](=O)(O)O)ccc1O)c1ccccc1", "activation": "inactive: 0.51%"}
{"smiles": "O=[N+]([O-])c1ncn(CCn2ncnc2[N+](=O)[O-])n1", "activation": "inactive: 0.27%"}
{"smiles": "CC(C)(C)C(=O)NC(Sc1ccncn1)C(Cl)(Cl)Cl", "note": "(stereo unspecified)", "activation": "inactive: -0.21%"}
{"smiles": "O=C(O)CNc1ccc([As](=O)(O)O)cc1", "activation": "inactive: 2.35%"}
{"smiles": "O=[N+]([O-])c1cccc(NC2=NCC(CBr)S2)c1", "note": "(stereo unspecified)", "activation": "inactive: 2.62%"}
{"smiles": "COC(=O)C1(C)COP(=O)(Nc2ccccc2)OC1", "note": "(stereo unspecified)", "activation": "inactive: 0.13%"}
{"smiles": "CN(C)C1(CNC(=O)c2ccc(Cl)c(S(N)(=O)=O)c2)CCCCC1", "activation": "inactive: 0.66%"}
{"smiles": "O=P(Nc1ccccn1)(c1ccc(Br)cc1)c1ccc(Br)cc1", "activation": "inactive: 0.23%"}
{"smiles": "COc1ccc(N)c([N+](=O)[O-])c1[N+](=O)[O-]", "activation": "inactive: 0.59%"}
{"smiles": "C[C@H]1OP(=O)(Oc2ccccc2)[C@H](O)[C@H](O)[C@H]1N=[N+]=[N-]", "note": "(stereo partly specified)", "activation": "inactive: 0.89%"}
{"smiles": "O=P(Nc1nc2ccccc2s1)(c1ccccc1)c1ccccc1", "activation": "inactive: 0.58%"}
{"smiles": "O=[As](O)(c1ccccc1)c1ccc(O)cc1", "activation": "inactive: 1.91%"}
{"smiles": "O=[N+]([O-])c1ncn(CCn2cnc([N+](=O)[O-])n2)n1", "activation": "inactive: 0.84%"}
{"smiles": "CC(=O)NC(SC(=S)N(C)C)C(Cl)(Cl)Cl", "note": "(stereo unspecified)", "activation": "active: 11%"}
{"smiles": "O=[N+]([O-])c1ccc(O)c(/C=N/Nc2ccc([N+](=O)[O-])cc2[N+](=O)[O-])c1", "activation": "inactive: -0.94%"}
{"smiles": "O=C(OC1CN2CCC1CC2)c1cccc(Cl)c1", "note": "(stereo unspecified)", "activation": "inactive: 0.2%"}
{"smiles": "Nc1ccc([As](=O)(O)c2ccc([N+](=O)[O-])cc2)cc1", "activation": "inactive: 0.15%"}
{"smiles": "C(Cc1nn[nH]n1)Cc1nn[nH]n1", "activation": "inactive: 0.7%"}
{"smiles": "O=P(Nc1nccs1)(c1ccccc1)c1ccccc1", "activation": "inactive: 3.31%"}
{"smiles": "CC(C)C(=O)NC(Sc1ccccc1)C(Cl)(Cl)Cl", "note": "(stereo unspecified)", "activation": "inactive: -1.54%"}
{"smiles": "c1nnnn1CCn1cnnn1", "activation": "inactive: 2.08%"}
{"smiles": "CCOc1ccc(C2=NCC(CBr)S2)cc1", "note": "(stereo unspecified)", "activation": "inactive: -0.51%"}
{"smiles": "O=P1(Nc2nc3ccc(Cl)cc3s2)COc2ccccc2O1", "note": "(stereo unspecified)", "activation": "inactive: 1.37%"}
{"smiles": "CC(C)(C)C(=O)NC(Sc1ccccc1)C(Cl)(Cl)Cl", "note": "(stereo unspecified)", "activation": "inactive: -0.11%"}
{"smiles": "CCc1cc(O)c([N+](=O)[O-])c(C)c1[N+](=O)[O-]", "activation": "inactive: 0.93%"}
{"smiles": "C[C@@H]1C=CCP(=O)(Oc2ccccc2)O1", "note": "(stereo partly specified)", "activation": "inactive: 2.72%"}
{"smiles": "C[C@H]1OP(=O)(Oc2ccccc2)C[C@@H]2O[C@@H]21", "note": "(stereo partly specified)", "activation": "inactive: -0.08%"}
{"smiles": "Cc1ccccc1CN(C)C(=O)COC(=O)C(O)(c1ccccc1)c1ccccc1", "activation": "inactive: -1.15%"}
{"smiles": "COC(=O)C1(C)COP(=O)(NCc2ccccc2)OC1", "note": "(stereo unspecified)", "activation": "inactive: -2.24%"}
